Source: patent publication US10450421B2, “Synthesis of multiarm poly[(R)-3-hydroxybutyrate] and its derivatives” (AGENCY FOR SCIENCE, TECHNOLOGY AND RESEARCH, priority 2015, dated 2019)

Experiments:
S. aureus = assay: Antimicrobial test, MIC against S. aureus; assay type: cell-based; conditions: Gram-positive bacteria S. aureus (n = 2)
Experimental: (§1) The solutions based on the Q-PHB-PDMAEMA were tested for efficacy in killing clinically significant pathogens: the […] and Gram-negative bacteria (E. coli).

E. coli = assay: Antimicrobial test, MIC against E. coli; assay type: cell-based; conditions: Gram-negative bacteria E. coli (n = 2)
Experimental: as §1

**Q.** For `CC[C@H](C)[C@H](NC(=O)CN)C(=O)NCC(=O)N[C@@H](C)C(=O)N[C@H](C(=O)N[C@@H](CC(C)C)C(=O)N[C@@H](CCCCN)C(=O)N[C@H](C(=O)N[C@@H](CC(C)C)C(=O)N[C@H](C(=O)N[C@H](C(=O)NCC(=O)N[C@@H](CC(C)C)C(=O)N1CCC[C@H]1C(=O)N[C@@H](C)C(=O)N[C@@H](CC(C)C)C(=O)N[C@H](C(=O)N[C@@H](CO)C(=O)N[C@@H](Cc1c[nH]c2ccccc12)C(=O)N[C@H](C(=O)N[C@@H](CCCCN)C(=O)N[C@@H](CCCNC(=N)N)C(=O)N[C@@H](CCCCN)C(=O)N[C@@H](CCCNC(=N)N)C(=O)N[C@@H](CCC(N)=O)C(=O)N[C@@H](CCC(N)=O)C(N)=O)[C@@H](C)CC)[C@@H](C)CC)[C@@H](C)O)[C@@H](C)O)C(C)C)C(C)C` [Melittin], which MIC (S. aureus) is on record?
**A.** Its MIC is 8 µg/mL (≈ 2.81 µM).

**Q.** And the MIC (E. coli)?
**A.** The MIC was 63 µg/mL (≈ 22.1 µM).

Converted amounts (≈) assume the structure as drawn.
